Reference: publication PMC7163917 (European journal of medicinal chemistry, 2020)

Tested on: PC 12 cell cultures
Details: PC12 cells

SMILES: O=C(O)c1cccc2c1NC(c1ccc(F)cc1)C1CC(Sc3ccccc3[N+](=O)[O-])C(Cl)C21 (stereo not shown) [ST2–5]
- differentiation and migration functions: increased level of differentiation and migration functions
- toxicity in PC 12 cell cultures: no toxicity

SMILES: Cc1cc(C(=O)O)ccc1-c1ccc(C=C2C(=O)c3ccccc3C2=O)o1 [ST3–5]
- differentiation and migration functions: increased level of differentiation and migration functions
- toxicity in PC 12 cell cultures: no toxicity
